miR-21 reporter – miR-21 reporter, rising signal | 340,000 tested, under 10 active | AID 2288 | HeLa miR-21 FLuc reporter, luciferase, 48 h | Potency, µM (titrated, usually from 38.3 µM), for inactives: at the highest dose reporter change, positive = more light; active = well fitted rising curve with a large enough effect; inconclusive = small, poorly fitted or top-dose-only effect; inactive = no such curve, though single readings can be large or run the other way;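 further: % of control where 0% means no effect; miR-21 action dims this reporter so a rising signal means less miR-21 action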
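Luminescence from a firefly luciferase reporter carrying a miR-21 binding site downstream, stably expressed under a CMV promoter in HeLa cells that make miR-21 endogenously, reports miRNA modulation after 48 h compound exposure up to approximately 40uM final.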
GLP1R inv ag – GLP-1 receptor (human) inverse agonism | P43220 | HEK293 GLP-1R CRE-luciferase, luminescence, 24 h; GLP-1R form is constitutively active | Potency, µM (doses to about 38.3 µM), for the others: at the top dose activity change, negative = inhibition, actives largely listed as inhibitors | hit rate 1.6% among 410,000 | AID 624417; further: potency means the concentration at half of the fitted maximal effect; on the % scale 0 is the no-effect control and ±100 the full control effect; nearly all actives have a fitted effect of over 55% in size
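qHTS in 1536-well format: reporter HEK293 cells expressing constitutive GLP-1R activity in DMEM + 10% Nu serum, 24 hr with compounds at 37 deg C, luminescence read after 12 min with detection reagent.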
Pin1 inh – inhibitors of human Pin1. Pin1 FP peptide displacement, HiFluor488, 10 min. AID 504891. Q13526. hit rate 0.009% among 390,000. Potency, µM (highest dose often 115 µM), inactives show at the highest dose activity, negative = inhibition, most hits filed as inhibitors; active means well fitted inhibition curve with a large enough effect in the polarisation, with a control signal flat, not every such curve was filed as active; inconclusive means small, poorly fitted or top-dose-only effect, or effect the other way, or a change in a side signal; inactive means no such curve, though single readings can be large or run the other way; the % refers to the polarisation; further: potency means the concentration at half of the fitted maximal effect; on the % scale 0 is the no-effect control and ±100 the full control effect
GLP1R cytotox – cytotoxic in the GLP-1 receptor inverse agonist counter-screen. Potency, µM (titrated, usually from 38.3 µM), without a hit: at the top dose activity change, negative = inhibition, most hits filed as inhibitors. HEK293 cAMP-luciferase reporter cells, luminescence, 24 h. AID 624418. hit rate 0.13% among 410,000;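 further: loss of luciferase light is scored as toxicity; potency means the concentration at half of the fitted maximal effect; on the % scale 0 is the no-effect control and ±100 the full control effect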
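Luminescence readout: signal drop marks cytotoxicity. Plated cells grew 12 h at 37 °C, 5% CO2, received 23 nL compound for 24 h, then got luciferase reagent, read after 12 min at RT.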
PTHR1 agonist – PTHR1 (human) receptor agonism. Q03431. HEK293 GP2 PTHR1 cells, GloSensor cAMP luminescence, 1 h. Potency, µM (top dose mostly 115 µM), without a hit: at the top dose activation, actives largely listed as activators. hit rate 0.075% among 410,000. AID 743266; further: potency means the concentration at half of the fitted maximal effect; nearly all actives have a fitted effect of over 55% in size
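HEK-293-derived GP2 cells expressing PTHR1 and a GloSensor cAMP reporter, 3,000/well, plated overnight, given luciferin plus IBMX (each 0.5 mM as added) for 1 h at 37 °C, then compound for 1 h at 37 °C. Luminescence was read after 15 min at room temperature.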
GLP-1R agonist – agonists of human GLP-1 receptor. Potency, µM (highest dose often 45.6 µM), without a hit: at the highest dose activation, usual class: activators. P43220. AID 624172. HEK293 GLP-1R CRE-luciferase, luminescence, 4-6 h; cells express a hypersensitive GLP-1R form. hit rate 0.007% among 380,000; further: potency means the concentration at half of the fitted maximal effect; % of control where 0% means no effect
An asterisk follows results filed as active; i = inactive; ? = inconclusive; nt = no result given; [ ] = dose if it differs, or a comment. Rows were chosen to be rich in hits. Some 1.7% of all compounds tested hit in one or more screens of this group. Unless noted, the call rests on the fitted dose curve; in most records, active means well fitted curve in the direction sought with a large enough effect; inconclusive means small, poorly fitted or top-dose-only effect, or another doubt; inactive means no such curve, though single readings can be large; an effect the other way counts as inactive or inconclusive.

Abbreviations: A = miR-21 reporter; B = GLP1R inv ag; C = Pin1 inh; D = GLP1R cytotox; E = PTHR1 agonist; F = GLP-1R agonist
CCN(CC)S(=O)(=O)c1ccc(N2CCN(c3ccccc3OC)CC2)c(N)c1
  A = 28%	B = 10µM*	C = -4%	D = -1%	E = -19%	F = 4%

COc1ccc(S(=O)(=O)N(CC(=O)N2CCN(c3ccccc3OC)CC2)c2ccccc2)cc1
  A = 23%	B = 10µM*	C = 27%	D = -10%	E = -14%[57.5 µM]	F = -3%

Cc1ccc(NC(=O)CN2CC(C)SC2=NC2CCCCC2)cc1 (stereo not given)
  A = 0%	B = 11µM*	C = -1%	D = ?	E = ?	F = 8%

O=C(O)Cc1cccc(-c2cc(CCCCCCc3ccc(O[C@H]4O[C@H](CO)[C@@H](O)[C@H](O)[C@@H]4O)c(-c4cccc(CC(=O)O)c4)c3)ccc2O[C@H]2O[C@H](CO)[C@@H](O)[C@H](O)[C@@H]2O)c1
  A = nt	B = nt	C = nt	D = nt	E = nt	F = 0%

COC(=O)CN1C(=O)[C@@H]2[C@H](C1=O)[C@@H]1CC(C(=O)OC)=C[C@@H](C(=O)OC)C3C1=C(C(=O)C31CCCCC1)[C@@H]2C (stereo not given in full)
  A = nt	B = nt	C = 3%	D = nt	E = nt	F = nt

Cc1ccc(-c2nc(CS(=O)(=O)CC(=O)N3CCCCCC3)c(C)o2)cc1
  A = 9%	B = 10µM*	C = -6%	D = -11%	E = -40%	F = 3%

COc1ccc(CCNc2ncnc3c2c(-c2ccccc2)cn3-c2cccc(Cl)c2)cc1OC
  A = 23%	B = 10µM*	C = -5%	D = -7%	E = -19%	F = nt

COc1ccc(-n2cc(-c3ccccc3)c3c(NCCc4ccc(OC)c(OC)c4)ncnc32)cc1
  A = ?	B = ?	C = 13%	D = -11%	E = i	F = nt

COc1ccc(CNc2ncnc3c2c(-c2ccccc2)cn3-c2ccccc2)cc1
  A = 12%	B = 6.3µM*	C = 20%	D = 0%	E = i	F = nt

CCOc1ccc(-n2cc(-c3ccccc3)c3c(NCc4ccc(F)cc4)ncnc32)cc1
  A = 1%	B = 1.4µM*	C = 0%	D = -3%	E = i	F = nt

CCOc1ccc(-n2cc(-c3ccccc3)c3c(NCc4ccccc4)ncnc32)cc1
  A = -3%	B = ?	C = -2%	D = 3%	E = i	F = nt

Cc1ccc(CNc2ncnc3c2c(-c2ccccc2)cn3-c2ccccc2)cc1
  A = 10%	B = ?	C = 0%	D = 2%	E = i	F = nt

CCN(CC)c1ccc(-c2nc(-c3ccco3)no2)cc1[N+](=O)[O-]
  A = 0%	B = -18%	C = 21%	D = 0%	E = -45%	F = nt

COc1cccc(C(=O)N(Cc2nc(-c3ccc(Cl)cc3)no2)C(C)C)c1OC
  A = 3%	B = ?	C = -1%	D = 2%	E = -28%	F = 0%

COc1cccc(C(=O)Oc2c(Br)cc(Br)cc2/C=N/NC(=O)c2cc(C)[nH]n2)c1
  A = 20%	B = 6.3µM*	C = 21%	D = -1%	E = i	F = 0%

CCCCNC(=O)CSc1nc2n[nH]c(C)c2c(=N)n1-c1ccccc1CC
  A = -16%	B = 8%	C = -4%	D = -13%	E = i	F = nt

CN(C)CCCNc1nc(N)c([N+](=O)[O-])c(NC2CCCCC2)n1
  A = -8%	B = 13µM*	C = 1%	D = -27%	E = i	F = 2%

COc1ccc(-c2nnc(NC(=O)c3ccccc3C)o2)cc1
  A = 16%	B = 10µM*	C = -2%	D = ?	E = -11%	F = -3%

COc1cccc(C(=O)Nc2nnc(-c3ccc(F)cc3)o2)c1
  A = 22%	B = ?	C = 4%	D = 2%	E = -3%	F = -3%

CC(=O)Nc1nnc(-c2ccc3c(c2)CCCC3)o1
  A = -42%	B = ?	C = 1%	D = ?	E = -24%	F = -5%

At a glance, part of the list above.
Abbreviations: A = miR-21 reporter; B = GLP1R inv ag; C = Pin1 inh; D = GLP1R cytotox; E = PTHR1 agonist; F = GLP-1R agonist
COc1ccc(-c2nnc(NC(=O)c3ccccc3C)o2)cc1
  A = 16%	B = 10µM*	C = -2%	D = ?	E = -11%	F = -3%

COc1cccc(C(=O)Nc2nnc(-c3ccc(F)cc3)o2)c1
  A = 22%	B = ?	C = 4%	D = 2%	E = -3%	F = -3%

CC(=O)Nc1nnc(-c2ccc3c(c2)CCCC3)o1
  A = -42%	B = ?	C = 1%	D = ?	E = -24%	F = -5%

The list continues.
Abbreviations: A = miR-21 reporter; B = GLP1R inv ag; C = Pin1 inh; D = GLP1R cytotox; E = PTHR1 agonist; F = GLP-1R agonist
COc1cccc(C(=O)Nc2nnc(-c3ccc(Cl)cc3)o2)c1
  A = 4%	B = 10µM*	C = 5%	D = -29%	E = -6%	F = -2%

COc1ccccc1C(=O)Nc1nnc(-c2ccc3c(c2)CCCC3)o1
  A = -25%	B = ?	C = -1%	D = 11µM*	E = -28%	F = -3%

O=C(c1ccco1)N1CCN(c2nc(-c3ccc(Br)cc3)cs2)CC1
  A = nt	B = nt	C = 2%	D = nt	E = nt	F = nt

O=C(Nc1ccc(Cl)c(Cl)c1)Nc1nccs1
  A = 7%	B = 3.2µM*	C = -5%	D = 4%	E = -33%	F = -5%

O=C(NCCc1cccs1)c1ccc(Cl)cc1
  A = -1%	B = 10µM*	C = 6%	D = -8%	E = -56%	F = -1%

Cc1ccc(C(=O)NCCc2cccs2)cc1
  A = ?	B = 5µM*	C = -7%	D = 3%	E = -45%	F = -3%

O=C(NCCc1cccs1)c1ccc(Cl)c(Cl)c1
  A = -65%	B = ?	C = 1%	D = 2%	E = -26%	F = 12%

CCc1ccc(CNC(=O)CCn2c(=O)c3cccn3c3ccc(F)cc32)cc1
  A = -7%	B = 11%	C = 1%	D = -9%	E = -4%	F = nt

CC1=NN(C(=O)c2ccccc2Cl)C(O)(c2ccccc2)C1 (stereo not given)
  A = -8%	B = ?	C = -3%	D = -14%	E = i	F = 0%

CC1=NN(C(=O)COc2ccccc2C)C(O)(c2ccc(Cl)cc2)C1 (stereo not given)
  A = 0%	B = 10µM*	C = 3%	D = ?	E = i	F = -5%

CCC1=NN(C(=O)c2ccc(Br)cc2)C(O)(c2ccccc2)C1 (stereo not given)
  A = -7%	B = 0.56µM*	C = 15%	D = ?	E = -32%	F = -3%

CCC1=NN(C(=O)COc2ccccc2C)C(O)(c2ccncc2)C1 (stereo not given)
  A = 1%	B = -1%	C = 4%	D = -27%	E = i	F = 4%

CC1=NN(C(=O)c2ccccc2)C(O)(c2ccc(Br)cc2)C1 (stereo not given)
  A = -32%	B = 4µM*	C = -10%	D = -19%	E = -5%	F = 9%

COc1ccc(CN(Cc2ccccc2)C(=O)c2ccc(OC)cc2O)cc1
  A = nt	B = nt	C = -2%	D = nt	E = nt	F = nt

CCC1=C[C@@H]2CN(C1)Cc1c([nH]c3ccccc13)[C@@](C(=O)OC)(c1cc3c(cc1OC)N(C)[C@@H]1[C@@](O)(C(=O)OC)[C@H](OC(C)=O)[C@]4(CC)C=CCN5CC[C@]31[C@@H]54)C2
  A = nt	B = nt	C = nt	D = nt	E = nt	F = 0%

c1nc(NCC2CCCO2)c2ccc(-c3ccc4c(c3)OCO4)cc2n1 (stereo not given)
  A = nt	B = nt	C = -13%	D = nt	E = nt	F = nt

O=[N+]([O-])c1cccc(-c2nc(-c3cccs3)c(-c3cccs3)[nH]2)c1
  A = 21%	B = 2.5µM*	C = -2%	D = 0%	E = -15%[57.5 µM]	F = 1%

O=[N+]([O-])c1ccc(-c2nc(-c3cccs3)c(-c3cccs3)[nH]2)cc1
  A = 27%	B = 3.2µM*	C = ?	D = ?	E = -20%	F = -5%

Cc1ccc(-c2nc(-c3cccs3)c(-c3cccs3)[nH]2)cc1
  A = 22%	B = ?	C = -3%	D = -3%	E = -34%	F = nt

COc1cccc(C#Cc2c(C=O)n(C)c3ccccc23)c1
  A = nt	B = 10µM*	C = 0%	D = 51%	E = -11%	F = -6%

Cn1c(C=O)c(C#CC(C)(C)O)c2ccccc21
  A = nt	B = -17%	C = 0%	D = -9%	E = -19%	F = 8%

Clc1ccc(/C=N/Nc2ncnc3ccccc23)cc1Cl
  A = -31%	B = ?	C = 3%	D = 2.2µM*	E = -32%	F = -3%

Fc1ccccc1/C=N/Nc1ncnc2ccccc12
  A = -17%	B = ?	C = 1%	D = ?	E = -24%	F = 6%
